# Measured values as given in patent US20220089679A1, “FUSION PROTEIN WITH IMMUNOSUPPRESSIVE ACTIVITY” (FUNDACIÓ INSTITUT D'INVESTIGACIÓ BIOMÈDICA DE BELL, priority 2019, published 2022).
# Test system: CD3+ T cell proliferation
# Assay: Mixed lymphocyte reaction (MLR) in vitro proliferation assay
# Format: cell-based, human
# Details: 10 μg/mL; 6 days; as compared to spontaneous proliferation without immunosuppressive agents (MLR); two responder subjects
# Method: Mixed Lymphocyte reactions (MLR) were performed in the presence or absence of different immunosuppressive drugs to test their inhibitory effect on T cell proliferation, following conventional methodology (Levitsky J, et al., “Allospecific regulatory effects of sirolimus and tacrolimus in the human mixed lymphocyte reaction”, Transplantation, 2011, vol. 91(2), pp. 199-206).
# Briefly, peripheral blood mononuclear cells (PBMC) from healthy controls were used as responder cells. CD3^+-depleted splenocytes extracted from deceased donors and mature dendritic cells (DCs) were extracted with CD2 positive selection cocktail (Stem Cell Technologies, France) following manufacturer's instructions and they were used as stimulators in the assay. […]
# First, PBMC were stained with carboxyfluorescein succinimidyl ester (CFSE) (Lloberas N, et al., “Dendritic cells phenotype fitting under hypoxia or lipopolysaccharide; adenosine 5′-triphosphate-binding cassette transporters far beyond an efflux pump”, Clin Exp Immunol., 2013, vol. 172(3), pp. 444-54). […] At day 6, cells were harvested and stained for CD3-APC and CD4-PE (BD Bioscience, San Jose, Calif., USA) 20 minutes in the dark following manufacturer's instructions, and T-cell proliferation were analyzed by flow cytometry (BD FACS CANTO 11, San Jose, Calif., USA) using Facs Diva software and following manufacturer's instructions. […]
substance,measurement,value
"Abatacept [CTLA4-Ig, reference compound]",decrease of CD3+ cells proliferation,40%-80%
